{"source": "patent US20060104951A1", "about": "“Akt and regulation of RA synovial fibroblast apoptosis” (priority 2004, published 2006)", "test_system": "rheumatoid arthritis synovial fibroblasts (RASF)", "test": "ATPlite-M cytotoxicity assay in RASF", "conditions": "TNF-α alone, 18 hours", "data": [{"substance": "tumor necrosis factor-alpha [TNF-α]", "values": [{"measurement": "cytotoxicity (ATPlite)", "result": "Neither treatment with TNF-α nor wortmannin alone could induce cytotoxicity"}]}]}
